The results in this text go back to patent US7271164B2, “Cyclohepta[b][1,4]diazepino[6,7,1,-hi]indoles and derivatives” (Wyeth, priority 2000, dated 2007).

Chains of the proteins cited; added tags and fusions are not shown. Residues count along the entry.
UniProt P28335, 33-458: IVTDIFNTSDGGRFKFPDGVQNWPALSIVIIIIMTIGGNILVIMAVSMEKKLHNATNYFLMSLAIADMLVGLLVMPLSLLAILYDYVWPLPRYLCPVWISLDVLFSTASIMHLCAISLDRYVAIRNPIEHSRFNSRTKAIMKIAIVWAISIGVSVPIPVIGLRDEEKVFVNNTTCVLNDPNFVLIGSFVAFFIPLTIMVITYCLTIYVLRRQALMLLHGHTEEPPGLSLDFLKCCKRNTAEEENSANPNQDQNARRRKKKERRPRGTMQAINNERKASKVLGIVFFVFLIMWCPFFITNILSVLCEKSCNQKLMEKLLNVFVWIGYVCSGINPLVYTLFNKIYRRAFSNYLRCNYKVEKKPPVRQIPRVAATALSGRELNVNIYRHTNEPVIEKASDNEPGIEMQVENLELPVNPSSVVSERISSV

Assay [1] deals with T1, human 5-hydroxytryptamine2C (h5HT2C) receptor (Homo sapiens, UniProt P28335).
T1 construct: expressed in transfected cells; host or cells: CHO (Chinese Hamster Ovary) cells; membrane preparation
The assay can be described thus: 5HT2C Receptor Binding Test Procedure ([125I] DOI displacement, CHO cell membranes). Conditions: reference compounds; [125I] DOI binding, h5HT2C in CHO membranes; read-out: Ki value and 95% confidence interval.

For a further assay, the target named is T2, human 5-HT2C receptor (Homo sapiens, UniProt P28335).
T2 construct: expressed in transfected cells; host or cells: CHO cells
As to the kind of experiment: Stimulation of [3H] Inositol Monophosphate Production by 5-HT2C Agonists (transfected CHO cells). It counts as cell-based.

As to `Clc1cccc(N2CCNCC2)c1` [mCPP, meta-chlorophenylpiperazine], the inhibition constant (Ki) (in general, a measure of affinity in units of concentration, obtained from inhibition or displacement) in assay [1] turned out to be 0.0065 µM. The “EMAX (relative to 5-HT)” value on human 5-HT2C receptor (reference compound, relative to 5-HT (10 μM)) was found to be 60%. In addition, the EC50 (commonly the concentration that produces a half-maximal response) on human 5-HT2C receptor (reference compounds, [3H] IP1 production) turned out to be 0.0468 µM.
